The nature of the assay: Removal of malodour from shoes, soles and urine stains. As to conditions: washing the stains.

On to chlorine, for which the “removal of malodour of urine stains (dog urine) on concrete” value is “no successful removal of the malodour”.

The values are drawn from patent US10195239B2, “Extract of Trigonella foenum-graecum” (dated 2019).
